How the values were obtained:
hNOP receptor = hNOP receptor (Homo sapiens (Human), UniProt P41146)
hMOP receptor = hMOP receptor (Homo sapiens (Human), UniProt P35372); test: Human mu-opioid peptide (hMOP) receptor binding assay (SPA, [3H]naloxone)

Amino acid sequences for entries named in this document (tags omitted). A change or cut given only in a name is not applied to a line headed by its entry.
UniProt P41146: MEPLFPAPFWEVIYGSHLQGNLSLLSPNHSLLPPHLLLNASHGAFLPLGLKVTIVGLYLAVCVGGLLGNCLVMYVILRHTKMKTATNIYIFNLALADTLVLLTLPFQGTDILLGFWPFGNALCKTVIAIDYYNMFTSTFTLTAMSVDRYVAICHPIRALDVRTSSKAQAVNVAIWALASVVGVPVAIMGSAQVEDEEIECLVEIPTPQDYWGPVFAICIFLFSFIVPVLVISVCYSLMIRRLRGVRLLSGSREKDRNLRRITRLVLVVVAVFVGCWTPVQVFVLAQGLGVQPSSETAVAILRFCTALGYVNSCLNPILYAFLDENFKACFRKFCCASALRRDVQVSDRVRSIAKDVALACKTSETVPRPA
UniProt P35372, whole entry, looked up: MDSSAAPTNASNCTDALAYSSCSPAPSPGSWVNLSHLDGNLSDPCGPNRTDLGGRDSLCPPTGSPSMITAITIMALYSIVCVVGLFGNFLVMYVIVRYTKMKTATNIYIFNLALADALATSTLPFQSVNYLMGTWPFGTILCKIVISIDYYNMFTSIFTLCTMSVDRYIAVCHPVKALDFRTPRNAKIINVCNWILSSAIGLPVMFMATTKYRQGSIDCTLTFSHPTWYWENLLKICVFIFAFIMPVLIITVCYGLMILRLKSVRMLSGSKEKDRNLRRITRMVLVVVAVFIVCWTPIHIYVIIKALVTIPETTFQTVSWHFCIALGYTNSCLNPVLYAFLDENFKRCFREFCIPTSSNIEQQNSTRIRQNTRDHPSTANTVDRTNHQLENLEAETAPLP

With COCCC[C@]1(N(C)C)CC[C@@]2(CC1)CN(Cc1ccc(OC)cc1)C(=O)N2 the “hNOP % inhibition @ 1 μM” value (hNOP receptor) was 4% @ 1 μM and the “hMOP % inhibition @ 1 μM” value (hMOP receptor) was 26% @ 1 μM.

From patent US10829480B2, “3-((hetero-)aryl)-alkyl-8-amino-2-oxo-l,3-diaza-spiro-[4.5]-decane derivatives” (dated 2020)
